Target: Mammalian DNA-PK (Homo sapiens, UniProt P78527)
Assay: DNA-PK inhibition (ELISA of p53 Ser15 phosphorylation of GST-p53N66)
Type: biochemical, Mammalian (isolated from HeLa cell nuclear extract)
Settings: not given

By UniProt entry, the sequences of proteins in these tests, tags left out.
UniProt P78527, whole entry: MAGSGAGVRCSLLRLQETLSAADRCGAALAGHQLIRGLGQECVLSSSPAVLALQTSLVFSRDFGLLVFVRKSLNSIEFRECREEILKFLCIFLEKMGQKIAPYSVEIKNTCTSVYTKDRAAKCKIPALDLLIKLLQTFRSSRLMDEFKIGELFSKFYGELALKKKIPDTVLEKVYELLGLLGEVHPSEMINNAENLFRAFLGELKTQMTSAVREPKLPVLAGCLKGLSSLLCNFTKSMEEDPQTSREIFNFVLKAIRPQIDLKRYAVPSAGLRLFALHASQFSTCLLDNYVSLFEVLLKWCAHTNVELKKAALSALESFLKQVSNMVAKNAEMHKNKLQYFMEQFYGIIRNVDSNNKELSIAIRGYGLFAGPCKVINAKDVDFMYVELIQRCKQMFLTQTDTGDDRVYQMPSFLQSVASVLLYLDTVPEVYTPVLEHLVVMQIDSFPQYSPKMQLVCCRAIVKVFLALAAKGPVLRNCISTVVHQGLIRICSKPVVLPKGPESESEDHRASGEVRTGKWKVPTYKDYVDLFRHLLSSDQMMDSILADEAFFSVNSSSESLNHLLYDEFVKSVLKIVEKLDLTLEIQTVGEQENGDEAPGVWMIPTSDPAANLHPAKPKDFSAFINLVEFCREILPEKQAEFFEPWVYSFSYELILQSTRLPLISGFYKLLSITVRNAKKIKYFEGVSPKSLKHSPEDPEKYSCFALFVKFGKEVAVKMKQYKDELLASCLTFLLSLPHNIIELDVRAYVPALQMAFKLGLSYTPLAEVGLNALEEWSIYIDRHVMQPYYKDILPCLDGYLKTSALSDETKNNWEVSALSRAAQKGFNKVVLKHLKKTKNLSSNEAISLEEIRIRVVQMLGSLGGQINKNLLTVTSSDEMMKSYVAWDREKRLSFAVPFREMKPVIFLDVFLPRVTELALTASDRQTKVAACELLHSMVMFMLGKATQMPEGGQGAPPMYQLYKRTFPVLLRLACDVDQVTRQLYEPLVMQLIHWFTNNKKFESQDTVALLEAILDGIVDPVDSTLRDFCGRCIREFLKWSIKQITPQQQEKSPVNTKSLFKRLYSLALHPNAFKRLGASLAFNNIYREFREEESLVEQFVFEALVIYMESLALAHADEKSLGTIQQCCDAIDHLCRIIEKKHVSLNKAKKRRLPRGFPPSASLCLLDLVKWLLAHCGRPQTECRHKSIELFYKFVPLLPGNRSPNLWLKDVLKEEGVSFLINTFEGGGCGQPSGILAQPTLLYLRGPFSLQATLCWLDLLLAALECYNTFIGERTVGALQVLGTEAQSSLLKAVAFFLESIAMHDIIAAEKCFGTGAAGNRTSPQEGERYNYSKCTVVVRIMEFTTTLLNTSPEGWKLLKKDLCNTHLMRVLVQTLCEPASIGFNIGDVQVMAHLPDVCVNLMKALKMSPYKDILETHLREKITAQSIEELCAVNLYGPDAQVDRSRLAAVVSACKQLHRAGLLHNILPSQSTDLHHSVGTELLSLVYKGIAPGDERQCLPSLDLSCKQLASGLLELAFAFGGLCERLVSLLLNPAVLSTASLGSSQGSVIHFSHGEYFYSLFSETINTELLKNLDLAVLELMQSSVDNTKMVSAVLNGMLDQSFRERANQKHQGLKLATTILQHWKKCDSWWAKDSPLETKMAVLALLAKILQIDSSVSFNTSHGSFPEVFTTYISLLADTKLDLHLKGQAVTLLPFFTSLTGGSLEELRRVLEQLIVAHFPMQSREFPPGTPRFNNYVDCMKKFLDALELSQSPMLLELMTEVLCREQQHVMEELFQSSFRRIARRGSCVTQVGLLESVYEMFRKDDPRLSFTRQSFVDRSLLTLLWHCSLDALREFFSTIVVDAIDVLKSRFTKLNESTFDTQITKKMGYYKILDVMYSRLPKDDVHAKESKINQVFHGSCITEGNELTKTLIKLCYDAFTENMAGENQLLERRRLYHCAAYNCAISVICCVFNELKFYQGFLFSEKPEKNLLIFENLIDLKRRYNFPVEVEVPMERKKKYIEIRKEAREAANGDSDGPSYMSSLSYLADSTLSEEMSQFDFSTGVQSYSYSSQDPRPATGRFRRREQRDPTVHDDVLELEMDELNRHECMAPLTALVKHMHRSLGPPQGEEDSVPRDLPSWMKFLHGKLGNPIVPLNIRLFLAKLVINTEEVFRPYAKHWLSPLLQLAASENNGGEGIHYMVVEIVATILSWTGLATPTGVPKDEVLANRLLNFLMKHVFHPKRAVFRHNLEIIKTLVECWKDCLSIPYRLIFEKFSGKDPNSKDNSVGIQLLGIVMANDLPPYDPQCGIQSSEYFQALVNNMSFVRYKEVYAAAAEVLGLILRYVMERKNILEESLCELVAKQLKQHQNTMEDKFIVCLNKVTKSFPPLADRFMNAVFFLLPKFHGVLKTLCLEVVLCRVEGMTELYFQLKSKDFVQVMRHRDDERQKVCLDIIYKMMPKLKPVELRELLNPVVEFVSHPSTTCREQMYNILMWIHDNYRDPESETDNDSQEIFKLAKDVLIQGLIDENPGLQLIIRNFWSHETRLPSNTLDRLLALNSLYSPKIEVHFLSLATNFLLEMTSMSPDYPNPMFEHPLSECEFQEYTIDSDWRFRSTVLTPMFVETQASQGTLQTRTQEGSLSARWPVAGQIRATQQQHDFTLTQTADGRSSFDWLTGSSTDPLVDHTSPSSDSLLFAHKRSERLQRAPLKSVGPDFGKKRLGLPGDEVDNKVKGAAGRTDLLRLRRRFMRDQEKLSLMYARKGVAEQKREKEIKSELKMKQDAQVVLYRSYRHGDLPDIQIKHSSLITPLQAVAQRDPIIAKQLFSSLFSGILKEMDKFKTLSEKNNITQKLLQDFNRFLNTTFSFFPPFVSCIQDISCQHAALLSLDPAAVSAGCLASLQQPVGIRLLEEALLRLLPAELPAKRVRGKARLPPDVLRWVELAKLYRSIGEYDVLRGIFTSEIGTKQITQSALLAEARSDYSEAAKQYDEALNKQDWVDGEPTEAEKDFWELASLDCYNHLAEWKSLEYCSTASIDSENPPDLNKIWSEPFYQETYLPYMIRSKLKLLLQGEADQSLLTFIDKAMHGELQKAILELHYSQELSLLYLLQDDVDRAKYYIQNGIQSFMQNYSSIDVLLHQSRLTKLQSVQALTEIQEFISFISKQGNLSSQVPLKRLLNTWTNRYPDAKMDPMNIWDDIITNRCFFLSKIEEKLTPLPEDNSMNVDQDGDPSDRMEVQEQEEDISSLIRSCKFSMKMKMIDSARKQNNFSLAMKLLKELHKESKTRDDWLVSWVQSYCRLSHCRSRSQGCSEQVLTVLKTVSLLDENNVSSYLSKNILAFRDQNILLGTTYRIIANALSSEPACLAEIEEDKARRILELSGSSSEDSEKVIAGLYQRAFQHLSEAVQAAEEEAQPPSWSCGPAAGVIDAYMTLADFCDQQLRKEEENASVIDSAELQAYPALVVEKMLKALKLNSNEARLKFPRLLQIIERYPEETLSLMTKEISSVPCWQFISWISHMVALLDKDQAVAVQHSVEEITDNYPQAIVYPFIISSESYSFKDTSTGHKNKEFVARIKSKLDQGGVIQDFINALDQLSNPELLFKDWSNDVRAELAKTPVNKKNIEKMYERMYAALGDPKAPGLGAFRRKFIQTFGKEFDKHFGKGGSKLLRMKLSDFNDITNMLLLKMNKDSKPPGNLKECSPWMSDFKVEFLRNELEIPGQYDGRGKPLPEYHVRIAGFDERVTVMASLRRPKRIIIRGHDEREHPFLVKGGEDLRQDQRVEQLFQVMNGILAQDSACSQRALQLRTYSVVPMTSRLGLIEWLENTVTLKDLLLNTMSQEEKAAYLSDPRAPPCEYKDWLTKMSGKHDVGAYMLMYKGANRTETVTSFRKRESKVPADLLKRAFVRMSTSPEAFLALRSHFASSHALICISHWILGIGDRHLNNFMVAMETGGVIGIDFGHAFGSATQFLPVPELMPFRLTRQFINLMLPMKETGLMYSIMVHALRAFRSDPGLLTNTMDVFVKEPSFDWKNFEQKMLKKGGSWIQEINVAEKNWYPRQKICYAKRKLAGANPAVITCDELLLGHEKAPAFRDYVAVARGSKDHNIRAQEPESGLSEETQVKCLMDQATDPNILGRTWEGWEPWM

IC50 [nM] | Compound
< 10 | O=C(CN1CCN(CCO)CC1)Nc1ccc(-c2cccc3c(=O)cc(N4CCOCC4)oc23)c2sc3ccccc3c12 [Compound 32]
< 10 | CCN1CCN(CC(=O)Nc2ccc(-c3cccc4c(=O)cc(N5CCOCC5)oc34)c3sc4ccccc4c23)CC1 [Compound 26]
< 10 | CC(=O)N1CCN(CC(=O)Nc2ccc(-c3cccc4c(=O)cc(N5CCOCC5)oc34)c3sc4ccccc4c23)CC1 [Compound 23]
< 10 | C[C@@H]1CN(CC(=O)Nc2ccc(-c3cccc4c(=O)cc(N5CCOCC5)oc34)c3sc4ccccc4c23)C[C@H](C)O1 [Compound 18]
< 10 | CC(=O)N1CCN(CCOc2ccc(-c3cccc4c(=O)cc(N5CCOCC5)oc34)c3sc4ccccc4c23)CC1 [Compound 84]
< 10 | CN1CCCN(CCOc2ccc(-c3cccc4c(=O)cc(N5CCOCC5)oc34)c3sc4ccccc4c23)CC1 [Compound 90]
< 10 | O=c1cc(N2CCOCC2)oc2c(-c3ccc(OCCNCc4ccncc4)c4c3sc3ccccc34)cccc12 [Compound 85]
10 to 12 | O=c1cc(N2CCOCC2)oc2c(-c3cccc4c3sc3ccccc34)cccc12 [reference compound]

Compound | IC50 [nM]
O=c1cc(N2CCOCC2)oc2c(-c3ccc(OCCNc4cccnc4)c4c3sc3ccccc34)cccc12 [Compound 86] | < 10
CC(C)N1CCN(CCOc2ccc(-c3cccc4c(=O)cc(N5CCOCC5)oc34)c3sc4ccccc4c23)CC1 [Compound 83] | < 10
CN(C)CCOc1ccc(-c2cccc3c(=O)cc(N4CCOCC4)oc23)c2sc3ccccc3c12 [Compound 88] | < 10
O=C(CN1CCN(CCOCCO)CC1)Nc1ccc(-c2cccc3c(=O)cc(N4CCOCC4)oc23)c2sc3ccccc3c12 [Compound 25] | < 10
O=C(CN(CCO)CCO)Nc1ccc(-c2cccc3c(=O)cc(N4CCOCC4)oc23)c2sc3ccccc3c12 [Compound 5] | < 10
COCCN1CCN(CC(=O)Nc2ccc(-c3cccc4c(=O)cc(N5CCOCC5)oc34)c3sc4ccccc4c23)CC1 [Compound 24] | < 10

Same assay, conditions: ATP 50 μM, 30° C.; read-out: IC50 DNA-PK inhibition

Compound | IC50 [nM]
O=C(CCNCC1CCCO1)Nc1ccc(-c2cccc3c(=O)cc(N4CCOCC4)oc23)c2sc3ccccc3c12 (stereo not drawn) [Compound 53] | < 10
COC(=O)C(CO)NCCOc1ccc(-c2cccc3c(=O)cc(N4CCOCC4)oc23)c2sc3ccccc3c12 (stereo not drawn) [Compound 82] | < 10
O=c1cc(N2CCOCC2)oc2c(-c3ccc(OCCNCCN4CCOCC4)c4c3sc3ccccc34)cccc12 [Compound 81] | < 10
COCCNCCC(=O)Nc1ccc(-c2cccc3c(=O)cc(N4CCOCC4)oc23)c2sc3ccccc3c12 [Compound 60] | < 10
NC(=O)CNCCOc1ccc(-c2cccc3c(=O)cc(N4CCOCC4)oc23)c2sc3ccccc3c12 [Compound 91] | < 10
NCCC(=O)Nc1ccc(-c2cccc3c(=O)cc(N4CCOCC4)oc23)c2sc3ccccc3c12 [Compound 51] | < 10
COC(=O)[C@H](CO)NC(=O)COc1ccc(-c2cccc3c(=O)cc(N4CCOCC4)oc23)c2sc3ccccc3c12 [Compound 95] | < 10
